Assay results from PMC10193940 (Proceedings of the National Academy of Sciences of the …, 2023).

What was measured:
[1] = target: GST-RNF20 (recombinant, full-length) (human); test: pull-down
[2] = target: GST-RNF40 (recombinant, full-length) (human); test: pull-down

B1: 6xHis-tagged RPA2 (natural protein)
chain: MWNSGFESYGSSSYGGAGGYTQSPGGFGSPAPSQAEKKSRARAQHIVPCTISQLLSATLVDEVFRIGNVEISQVTIVGIIRHAEKAPTNIVYKIDDMTAAPMDVRQWVDTDDTSSENTVVPPETYVKVAGHLRSFQNKKSLVAFKIMPLEDMNEFTTHILEVINAHMVLSKANSQPSAGRAPISNPGMSEAGNFGGNSFMPANGLTVAQNQVLNLIKACPRPEGLNFQDLKNQLKHMSVSSIKQAVDFLSNEGHIYSTVDDDHFKSTDAE
B1: binds [1]; binds [2].
